Laboratory results published in US6962792B1, “Methods and means for inhibition of Cdk4 activity” (Cyclacel Limited, priority 1996, dated 2005).

Chains of the proteins cited; added tags and fusions are not shown.
UniProt P24385, whole entry: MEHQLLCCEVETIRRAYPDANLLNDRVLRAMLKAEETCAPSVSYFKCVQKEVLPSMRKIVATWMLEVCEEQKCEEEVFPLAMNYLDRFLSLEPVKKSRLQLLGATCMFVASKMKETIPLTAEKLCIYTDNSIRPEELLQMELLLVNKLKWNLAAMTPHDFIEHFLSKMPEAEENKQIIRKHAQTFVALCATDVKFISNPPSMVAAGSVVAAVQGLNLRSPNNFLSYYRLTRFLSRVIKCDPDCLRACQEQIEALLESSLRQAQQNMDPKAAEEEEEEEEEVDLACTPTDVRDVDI
UniProt P11802, whole entry, chain 1 of 2: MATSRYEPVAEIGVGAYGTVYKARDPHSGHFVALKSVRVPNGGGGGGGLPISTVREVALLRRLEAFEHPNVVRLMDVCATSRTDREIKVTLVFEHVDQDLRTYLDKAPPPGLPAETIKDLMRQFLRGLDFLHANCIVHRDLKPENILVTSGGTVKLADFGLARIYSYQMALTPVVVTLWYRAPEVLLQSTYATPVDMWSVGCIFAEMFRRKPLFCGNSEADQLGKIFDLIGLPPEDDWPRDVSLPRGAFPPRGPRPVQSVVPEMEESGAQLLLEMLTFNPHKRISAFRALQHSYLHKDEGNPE
UniProt P12004, whole entry, species assumed: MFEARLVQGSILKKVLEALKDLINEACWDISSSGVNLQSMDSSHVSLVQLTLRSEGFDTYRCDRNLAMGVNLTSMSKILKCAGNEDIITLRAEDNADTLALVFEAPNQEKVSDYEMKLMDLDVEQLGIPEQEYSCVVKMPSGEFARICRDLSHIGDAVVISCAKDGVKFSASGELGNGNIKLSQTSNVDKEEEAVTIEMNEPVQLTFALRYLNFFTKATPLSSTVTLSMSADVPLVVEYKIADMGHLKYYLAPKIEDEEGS

Key:
cyclin D1 = target: T1, cyclin D1 (Homo sapiens, UniProt P24385); experiment: Peptide precipitation assay with 35S-labelled cyclin D1; assay type: binding; conditions: biotinylated peptide on streptavidin-agarose beads, reticulocyte lysate
T1 construct: host or cells: rabbit reticulocyte lysate, in vitro translation

cyclin D1-Cdk4 = target: T2, cyclin D1-Cdk4 (Homo sapiens, UniProt P11802+P24385); experiment: Cyclin D1-Cdk4 GST-Rb phosphorylation assay (Sf9 insect cell lysate); assay type: biochemical
T2 construct: made in house; host or cells: Sf9 insect cells, baculovirus co-infection; unpurified lysate
Description: “x” indicates no addition of peptide.
Cyclins and CDKs—Cdk4 and cyclin D1, Cdk2 and cyclin E and Cdc2 and cyclin B were co-expressed in Sf9 insect cells infected with the appropriate baculovirus constructs. The cells were harvested two days after infection by low speed centrifugation and the pellet was lysed in an equal volume of 10 mM Hepes, pH 7.4 containing: 10 mM NaCl, 1 mM EDTA, and 0.1 mM phenylmethane sulphonyl fluoride, 2 mM DTT and centrifuged at 14000×g for 15 min. The supernatant was removed, aliquoted and immediately frozen in liquid nitrogen. Thawed lysate was used only once and was never refrozen. Labelled Cdk4 and cyclin D1 were produced by translation in the presence of [^35S] methionine using a rabbit reticulocyte lysate in vitro translation kit (Promega).
Phosphorylation of GST-Rb—Cdk4 activity was measured using the cyclin D1-Cdk4 containing insect cell lysate described above. Extract (1 μl) was added to a final reaction volume of 10 μl, containing: 50 mM Hepes, pH 7.4, 10 mM MgCl2, 2.5 mM EGTA, 1 mM DTT, 10 mM β-glycerophosphate, 1 mM NaF, 10 mM PKI, 50 μM ATP containing [^32P] ATP (1000 cpm/pMol) and 0.5 μg GST-Rb. […] The samples were analysed by SDS-PAGE on 12% gels followed by auto-radiography and quantification using a Bio-Imager.

Cdk4 = target: T3, Cdk4 (Homo sapiens, UniProt P11802); experiment: Peptide precipitation assay with 35S-labelled Cdk4; assay type: binding; conditions: biotinylated peptide on streptavidin-agarose beads, reticulocyte lysate
T3 construct: host or cells: rabbit reticulocyte lysate, in vitro translation

PCNA = PCNA (Homo sapiens, UniProt P12004); conditions: Warbrick et al. 1995; Ball and Lane 1996; cited from earlier work
Cdk4 and/or cyclin D1 = experiment: Peptide precipitation assay in the presence of full length his-p21WAF1 (competition); assay type: binding, human; conditions: 0, 0.5, 2 μg of p21WAF1
[1] = target: cyclin D1-Cdk4 complex co-expressed in Sf9 insect cells (lysate) (UniProt P11802 1-303; P24385 1-295); experiment: cell-based or functional assay

Molecule	binding to cyclin D1 (cyclin D1)	binding to Cdk4 (Cdk4)	further results
CC[C@H](C)[C@H](NC(=O)[C@H](CC(C)C)NC(=O)[C@H](CCCNC(=N)N)NC(=O)[C@H](CCCNC(=N)N)NC(=O)[C@H](CCCCN)NC(=O)[C@H](CO)NC(=O)[C@H](Cc1c[nH]cn1)NC(=O)[C@H](Cc1ccc(O)cc1)NC(=O)[C@H](Cc1ccccc1)NC(=O)[C@H](C)NC(=O)[C@@H](NC(=O)[C@H](CCSC)NC(=O)[C@H](CO)NC(=O)[C@@H](NC(=O)[C@H](CCC(N)=O)NC(=O)[C@H](CCCNC(=N)N)NC(=O)[C@H](CCCNC(=N)N)NC(=O)[C@@H](N)CCCCN)[C@@H](C)O)[C@@H](C)O)C(=O)N[C@@H](Cc1ccccc1)C(=O)N[C@@H](CO)C(=O)O [D to A mutant peptide 10]	does not appear to increase the affinity of the peptide for either Cdk4 or cyclin D1	does not appear to increase the affinity of the peptide for either Cdk4 or cyclin D1	fold lower activity than full length p21WAF1 protein (cyclin D1-Cdk4; versus full length p21WAF1): 3.5 fold; fold more active than p16INK4-based peptide as Cdk4 inhibitor (cyclin D1-Cdk4; versus p16INK4-based peptide): approximately 350 fold
peptide 11: extreme C-terminal peptide of p21WAF1, SEQ ID NO:11 (TSMTDFYHSKRRLIFSKRKP)	could form stable complexes with both Cdk4 and cyclin D1	could form stable complexes with both Cdk4 and cyclin D1	binding to PCNA (PCNA): not to PCNA; also recorded: cannot bind PCNA
Peptide-I: peptide 10 with M to A at position 7 synthesised onto Antennapedia carrier peptide, SEQ ID NO:24 (KRRQTSATDFYHSKRRLIFSRQIKIWFQNRRMKWKK)			binding to PCNA (PCNA): abolishing its activity as a PCNA binding peptide
peptide 4: residues 46-65 of p21WAF1, SEQ ID NO:4, Biotin-SGSG spacer (RERWNFDFVTETPLEGDFAW; N-terminal biotin-SGSG spacer)	not to cyclin D1	bound specifically to Cdk4; also recorded: high affinity for Cdk4; also recorded: capable of binding to Cdk4 to form a stable complex; also recorded: forms a stable complex with Cdk4	
CC(C)C[C@H](NC(=O)[C@H](CCCNC(=N)N)NC(=O)[C@H](CCCNC(=N)N)NC(=O)[C@H](CS)NC(=O)[C@H](C)NC(=O)[C@@H](N)CCCCN)C(=O)N[C@@H](Cc1ccccc1)C(=O)NCC(=O)N1CCC[C@H]1C(=O)N[C@H](C(=O)N[C@@H](CC(=O)O)C(=O)N[C@@H](CO)C(=O)N[C@@H](CCC(=O)O)C(=O)N[C@@H](CCC(N)=O)C(=O)N[C@@H](CC(C)C)C(=O)N[C@@H](CO)C(=O)N[C@@H](CCCNC(=N)N)C(=O)N[C@@H](CC(=O)O)C(=O)N[C@@H](CS)C(=O)N[C@@H](CC(=O)O)C(=O)O)C(C)C [peptide 2]	capable of binding to cyclin D1; also recorded: forms a stable complex with cyclin D1; also recorded: binds to cyclin D1	not to Cdk4	effect of p21WAF1 protein on peptide binding to cyclin D1 and Cdk4 (Cdk4 and/or cyclin D1): prevents binding of both peptide 2 and peptide 10
R-A mutant: peptide 10 with R-A at residue 15, equivalent to residue 155 of the full length protein (KRRQTSMTDFYHSKARLIFSSGSG)	partially retained its ability to bind both Cdk4 and cyclin D1	partially retained its ability to bind both Cdk4 and cyclin D1	
KRRQTSMTAFYHSKRRLIFSSGSG (Biotin-SGSG spacer at the C-terminus; free N-terminus) [peptide 10 mutant with D-A at position 9 of peptide 10 or 149 of the full length protein]			fold activity as a Cdk4 inhibitory compound against the p16INK4-based peptide [1]: ~350 fold; fold specific activity as a kinase inhibitor against full length p21^WAF1 [1]: 3.5 fold

“Also recorded” adds a separate entry of the source.
